From PubChem BioAssay (NCI)
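Interpolation was linear, between the two tested concentrations surrounding the appropriate level; five concentrations were tested over 48 hours in 96-well plates. Here, GI50 denotes the concentration required for 50% inhibition of growth. The concentration for full growth arrest is given as TGI.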

Tests used:
Assay in all cases: NCI tumour cell line growth inhibition, 48 h
786-0 renal = tested on: 786-0 renal
A498 renal = tested on: A498 renal
A549 NSCLC = tested on: A549 NSCLC
ACHN renal = tested on: ACHN renal
BT-549 breast = tested on: BT-549 breast
CAKI-1 renal = tested on: CAKI-1 renal
CCRF-CEM leukemia = tested on: CCRF-CEM leukemia
COLO 205 colon = tested on: COLO 205 colon
DU-145 prostate = tested on: DU-145 prostate
EKVX NSCLC = tested on: EKVX NSCLC
HCC-2998 colon = tested on: HCC-2998 colon
HCT-116 colon = tested on: HCT-116 colon
HCT-15 colon = tested on: HCT-15 colon
HL-60(TB) leukemia = tested on: HL-60(TB) leukemia
HOP-62 NSCLC = tested on: HOP-62 NSCLC
HOP-92 NSCLC = tested on: HOP-92 NSCLC
HS 578T breast = tested on: HS 578T breast
HT29 colon = tested on: HT29 colon
IGROV1 ovarian = tested on: IGROV1 ovarian
K-562 leukemia = tested on: K-562 leukemia
KM12 colon = tested on: KM12 colon
LOX IMVI melanoma = tested on: LOX IMVI melanoma
M14 melanoma = tested on: M14 melanoma
MALME-3M melanoma = tested on: MALME-3M melanoma
MCF7 breast = tested on: MCF7 breast
MDA-MB-231 breast = tested on: MDA-MB-231 breast
MDA-MB-435 = tested on: MDA-MB-435
MDA-N = tested on: MDA-N
MOLT-4 leukemia = tested on: MOLT-4 leukemia
NCI-H226 lung = tested on: NCI-H226 lung
NCI-H23 lung = tested on: NCI-H23 lung
NCI-H322M lung = tested on: NCI-H322M lung
NCI-H460 lung = tested on: NCI-H460 lung
NCI-H522 lung = tested on: NCI-H522 lung
NCI/ADR-RES ovarian = tested on: NCI/ADR-RES ovarian
OVCAR-3 ovarian = tested on: OVCAR-3 ovarian
OVCAR-4 ovarian = tested on: OVCAR-4 ovarian
OVCAR-5 ovarian = tested on: OVCAR-5 ovarian
OVCAR-8 ovarian = tested on: OVCAR-8 ovarian
PC-3 prostate = tested on: PC-3 prostate
RPMI-8226 leukemia = tested on: RPMI-8226 leukemia
RXF 393 renal = tested on: RXF 393 renal
SF-268 CNS = tested on: SF-268 CNS
SF-295 CNS = tested on: SF-295 CNS
SF-539 CNS = tested on: SF-539 CNS
SK-MEL-2 melanoma = tested on: SK-MEL-2 melanoma
SK-MEL-28 melanoma = tested on: SK-MEL-28 melanoma
SK-MEL-5 melanoma = tested on: SK-MEL-5 melanoma
SK-OV-3 ovarian = tested on: SK-OV-3 ovarian
SN12C renal = tested on: SN12C renal
SNB-19 CNS = tested on: SNB-19 CNS
SNB-75 CNS = tested on: SNB-75 CNS
SR leukemia = tested on: SR leukemia
SW-620 colon = tested on: SW-620 colon
T-47D breast = tested on: T-47D breast
TK-10 renal = tested on: TK-10 renal
U251 CNS = tested on: U251 CNS
UACC-257 melanoma = tested on: UACC-257 melanoma
UACC-62 melanoma = tested on: UACC-62 melanoma
UO-31 renal = tested on: UO-31 renal

O=C(OCC(F)([N+](=O)[O-])[N+](=O)[O-])OCC(F)([N+](=O)[O-])[N+](=O)[O-]
GI50 (786-0 renal): 4.46 µM
TGI (786-0 renal): 16.4 µM
GI50 (A498 renal): 3.54 µM
TGI (A498 renal): 19.4 µM
GI50 (A549 NSCLC): 3.05 µM
TGI (A549 NSCLC): 20.4 µM
GI50 (ACHN renal): 3.14 µM
TGI (ACHN renal): 15 µM
GI50 (BT-549 breast): 18.1 µM
TGI (BT-549 breast): 32.4 µM
GI50 (CAKI-1 renal): 1.65 µM
TGI (CAKI-1 renal): 4.03 µM
GI50 (CCRF-CEM leukemia): 0.879 µM
TGI (CCRF-CEM leukemia): 18 µM
GI50 (COLO 205 colon): 1.25 µM
TGI (COLO 205 colon): 2.76 µM
GI50 (DU-145 prostate): 5.93 µM
TGI (DU-145 prostate): 18.5 µM
GI50 (EKVX NSCLC): 5.65 µM
TGI (EKVX NSCLC): 20.6 µM
GI50 (HCC-2998 colon): 4.39 µM
TGI (HCC-2998 colon): 9.61 µM
GI50 (HCT-116 colon): 1.17 µM
TGI (HCT-116 colon): 5.88 µM
GI50 (HCT-15 colon): 1.73 µM
TGI (HCT-15 colon): 6.25 µM
GI50 (HL-60(TB) leukemia): 1.31 µM
TGI (HL-60(TB) leukemia): 4.57 µM
GI50 (HOP-62 NSCLC): 8.7 µM
TGI (HOP-62 NSCLC): 23.4 µM
GI50 (HOP-92 NSCLC): 3.3 µM
TGI (HOP-92 NSCLC): 11.8 µM
GI50 (HS 578T breast): 0.552 µM
TGI (HS 578T breast): 3.17 µM
GI50 (HT29 colon): 1.35 µM
TGI (HT29 colon): 15.5 µM
GI50 (IGROV1 ovarian): 2.81 µM
TGI (IGROV1 ovarian): 15 µM
GI50 (K-562 leukemia): 1.97 µM
TGI (K-562 leukemia): 74.2 µM
GI50 (KM12 colon): 6.18 µM
TGI (KM12 colon): 19.9 µM
GI50 (LOX IMVI melanoma): 0.752 µM
TGI (LOX IMVI melanoma): 12.4 µM
GI50 (M14 melanoma): 2.44 µM
TGI (M14 melanoma): 16.2 µM
GI50 (MALME-3M melanoma): 1.49 µM
TGI (MALME-3M melanoma): 10.5 µM
GI50 (MCF7 breast): 3.72 µM
TGI (MCF7 breast): 27.2 µM
GI50 (MDA-MB-231 breast): 9.73 µM
TGI (MDA-MB-231 breast): 25.3 µM
GI50 (MDA-MB-435): 1.38 µM
TGI (MDA-MB-435): 16.1 µM
GI50 (MDA-N): 1.7 µM
TGI (MDA-N): 8.29 µM
GI50 (MOLT-4 leukemia): 1.97 µM
TGI (MOLT-4 leukemia): 22.3 µM
GI50 (NCI-H226 lung): 7.9 µM
TGI (NCI-H226 lung): 21.9 µM
GI50 (NCI-H23 lung): 4.71 µM
TGI (NCI-H23 lung): 20.7 µM
GI50 (NCI-H322M lung): 12.4 µM
TGI (NCI-H322M lung): 27 µM
GI50 (NCI-H460 lung): 1.65 µM
TGI (NCI-H460 lung): 7.36 µM
GI50 (NCI-H522 lung): 0.541 µM
TGI (NCI-H522 lung): 2.55 µM
GI50 (NCI/ADR-RES ovarian): 5.07 µM
TGI (NCI/ADR-RES ovarian): 25.4 µM
GI50 (OVCAR-3 ovarian): 4.35 µM
TGI (OVCAR-3 ovarian): 17.3 µM
GI50 (OVCAR-4 ovarian): 10.8 µM
TGI (OVCAR-4 ovarian): 24.1 µM
GI50 (OVCAR-5 ovarian): 8.5 µM
TGI (OVCAR-5 ovarian): 28.6 µM
GI50 (OVCAR-8 ovarian): 3.39 µM
TGI (OVCAR-8 ovarian): 16.1 µM
GI50 (PC-3 prostate): 9.06 µM
TGI (PC-3 prostate): 36.4 µM
GI50 (RPMI-8226 leukemia): 0.339 µM
TGI (RPMI-8226 leukemia): 23.3 µM
GI50 (RXF 393 renal): 5.2 µM
TGI (RXF 393 renal): 20.8 µM
GI50 (SF-268 CNS): 5.47 µM
TGI (SF-268 CNS): 20.1 µM
GI50 (SF-295 CNS): 13.6 µM
TGI (SF-295 CNS): 29.4 µM
GI50 (SF-539 CNS): 12.1 µM
TGI (SF-539 CNS): 25 µM
GI50 (SK-MEL-2 melanoma): 5.36 µM
TGI (SK-MEL-2 melanoma): 31 µM
GI50 (SK-MEL-28 melanoma): 7.63 µM
TGI (SK-MEL-28 melanoma): 26.9 µM
GI50 (SK-MEL-5 melanoma): 1.99 µM
TGI (SK-MEL-5 melanoma): 8.51 µM
GI50 (SK-OV-3 ovarian): 14.4 µM
TGI (SK-OV-3 ovarian): 28.2 µM
GI50 (SN12C renal): 5.28 µM
TGI (SN12C renal): 17 µM
GI50 (SNB-19 CNS): 2.48 µM
TGI (SNB-19 CNS): 29.7 µM
GI50 (SNB-75 CNS): 0.301 µM
TGI (SNB-75 CNS): 2.89 µM
GI50 (SR leukemia): 1.47 µM
TGI (SR leukemia): 22.6 µM
GI50 (SW-620 colon): 1.24 µM
TGI (SW-620 colon): 16.7 µM
GI50 (T-47D breast): 3.43 µM
TGI (T-47D breast): 19.1 µM
GI50 (TK-10 renal): 4.72 µM
TGI (TK-10 renal): 11.3 µM
GI50 (U251 CNS): 8.46 µM
TGI (U251 CNS): 33 µM
GI50 (UACC-257 melanoma): 6.28 µM
TGI (UACC-257 melanoma): 22 µM
GI50 (UACC-62 melanoma): 2.02 µM
TGI (UACC-62 melanoma): 10.7 µM
GI50 (UO-31 renal): 7.68 µM
TGI (UO-31 renal): 21.5 µM
